Data on two compounds can be found in BindingDB's records for doi:10.1016/0006-8993(84)90856-4 (Mayo Foundation, 1984).

The chains behind the UniProt entries cited, without tags or fusion partners.
UniProt P35367, whole entry: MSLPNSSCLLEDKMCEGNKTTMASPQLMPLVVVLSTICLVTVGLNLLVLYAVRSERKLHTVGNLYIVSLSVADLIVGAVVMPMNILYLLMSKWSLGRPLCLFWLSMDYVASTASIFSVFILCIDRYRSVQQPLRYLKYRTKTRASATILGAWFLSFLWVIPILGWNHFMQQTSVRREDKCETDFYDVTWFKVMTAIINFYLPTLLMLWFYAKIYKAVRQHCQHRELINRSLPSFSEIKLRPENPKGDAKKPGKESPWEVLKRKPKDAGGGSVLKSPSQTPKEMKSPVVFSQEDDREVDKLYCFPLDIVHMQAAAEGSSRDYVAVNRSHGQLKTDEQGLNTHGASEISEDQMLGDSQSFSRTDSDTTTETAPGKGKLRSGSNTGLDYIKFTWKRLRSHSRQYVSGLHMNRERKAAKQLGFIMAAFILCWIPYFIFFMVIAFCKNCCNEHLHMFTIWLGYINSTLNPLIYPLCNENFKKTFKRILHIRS

For this test, the target named is Histamine H1 receptor (Homo sapiens, UniProt P35367).

On to `CN1CCN(CC/C=C2/c3ccccc3Sc3ccc(S(=O)(=O)N(C)C)cc32)CC1` [MLS000028463], for which the affinity corresponds to a Ki of 4.4 nM. Take `CN1CCN(C2=c3ccccc3=Nc3ccc(Cl)cc3N2)CC1` [6-chloro-10-(4-methylpiperazin-1-yl)-2,9-diazatricyclo[9.4.0.0^{3,8}]pentadeca-1,3(8),4,6,10,12,14-heptaene]: affinity was put at a Ki of 1.2 nM.
